Test results reported in patent publication US4521428A, “Anorexigenic trifluoromethylphenyltetrahydropyridines and pharmaceutical compositions containing them” (Sanofi, priority 1982, dated 1985).

Columns and labels:
[1] = acute toxicity in the rat (LD50) by the oral or intraperitoneal route; settings: in vivo, read-out: A/B (LD50/ID50, therapeutic index)
Excerpt: the acute toxicity, expressed as LD50 in the rat by the oral or intraperitoneal route (A);
the ratio between the acute toxicity and the anorectic activity which expresses the therapeutic index related to the acute toxicity (A/B).

serotonin uptake = settings: cited from earlier work

Compound: CCNC(C)Cc1cccc(C(F)(F)F)c1 (stereo not drawn) [Fenfluramine, reference compound]
- selectivity ratio ([1]; ip): 64.6
- selectivity ratio ([1]; os): 92
- serotonin uptake (background) (serotonin uptake): inhibition of the serotonin uptake

Read-outs that look alike come from different tables or passages of the source.
